Assay results as given in PubChem BioAssay AID588493 (Sanford-Burnham Center for Chemical Genomics, 2011).
Only a part is listed here, and it is no random draw. Active and inactive are the calls of the source.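 The calls were made as follows: active = inhibition at 20 µM, scaled to each plate's controls, above about 33% (limit read from the data); inactive = the rest.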

Protein sequences, listed by entry. Tags and fused reporters are not part of them.
UniProt O00487, whole entry, looked up: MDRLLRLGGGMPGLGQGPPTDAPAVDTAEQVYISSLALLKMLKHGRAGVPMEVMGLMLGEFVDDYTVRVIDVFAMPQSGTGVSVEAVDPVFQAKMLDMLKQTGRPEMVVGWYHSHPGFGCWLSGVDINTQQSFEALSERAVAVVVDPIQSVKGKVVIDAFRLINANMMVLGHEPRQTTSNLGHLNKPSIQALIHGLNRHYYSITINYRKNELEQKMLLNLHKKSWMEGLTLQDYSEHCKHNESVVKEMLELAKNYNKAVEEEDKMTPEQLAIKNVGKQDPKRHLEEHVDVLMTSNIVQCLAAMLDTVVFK

What follows are molecules tested against 26S proteasome non-ATPase regulatory subunit 14 (Homo sapiens) (UniProt O00487) (assay: Rpn11 (PSMD14) deubiquitinase inhibitors, primary screen, biochemical, fluorescence polarization, uHTS (AID 588493)). Conditions: human 26S proteasome, Ub4-pepOG fluorescence polarization; at 20 µM; active compounds read high; 20S core pre-blocked with epoxomicin.

Compound | inhibition
O=P1(N(CCCl)CCCl)OCCC2CCCCN21 (centres undefined) | inactive: -3.4%
O=C(NC1CCS(=O)(=O)C1)NP(=S)(Oc1ccccc1)Oc1ccccc1 (centres undefined) | inactive: -0.2%
CCNC(=S)/N=C(\N)N[N+](=O)[O-] | inactive: -2.5%
c1ccc(-c2nn[nH]n2)c(-c2nn[nH]n2)c1 | inactive: 1.8%
Cc1ccc(NP(=O)(Oc2cccc(C)c2)Oc2cccc(C)c2)nc1 | inactive: 1.1%
CC(NC(=O)COC(=O)C(O)(c1ccccc1)c1ccccc1)c1ccccc1 (centres undefined) | inactive: -3.5%
Cc1ccccc1OP(=O)(Nc1ccccn1)Oc1ccccc1C | inactive: -8.3%
O=c1c2cc([N+](=O)[O-])ccc2[nH]c2c([N+](=O)[O-])cc([N+](=O)[O-])cc12 | inactive: 18.5%
CN(C)C(=O)Oc1noc2ccccc12 | inactive: -0.8%
COC(=O)c1cc2c(s1)N=C(c1ccccc1)N(C)P2(=O)N1CCOCC1 (centres undefined) | inactive: 2.2%
Cc1ccc(OP(=O)(Nc2ccccn2)Oc2ccc(C)cc2)cc1 | inactive: -1%
CC(=O)NC(SC(=S)N(CC(C)C)CC(C)C)C(Cl)(Cl)Cl (centres undefined) | inactive: 6.7%
O=C(OC1CN2CCC1CC2)c1ccccc1 (centres undefined) | inactive: 7.2%
CCC(=O)N1C2C3N(C(=O)CC)C1C1N(C(=O)CC)C(C(N1C(=O)CC)N3C(=O)CC)N2C(=O)CC | inactive: 7.7%
CCc1cc(O)c([N+](=O)[O-])c(C)c1[N+](=O)[O-] | inactive: -2%
CC(C)(C)C(=O)NC(Sc1ccccc1)C(Cl)(Cl)Cl (centres undefined) | inactive: -1.8%
O=P1(Nc2nc3ccc(Cl)cc3s2)COc2ccccc2O1 (centres undefined) | inactive: -1.6%
CCOc1ccc(C2=NCC(CBr)S2)cc1 (centres undefined) | inactive: -7.9%
CC(=O)Nc1ccc([As](=O)(O)O)c(O)c1 | inactive: 7.2%
CC(=O)Nc1ccc(Oc2c([N+](=O)[O-])cc([N+](=O)[O-])cc2[N+](=O)[O-])cc1 | inactive: -0.9%
CC(=O)c1ccc(N2CC2c2ccncc2)cc1 (centres undefined) | inactive: -1.9%
N#C/C(=C\c1ccc(N(CCBr)CCBr)cc1)C(N)=O | inactive: 3.5%
COC(=O)C1(C)COP(=O)(NCc2ccccc2)OC1 (centres undefined) | inactive: 1.3%
Cc1ccccc1CN(C)C(=O)COC(=O)C(O)(c1ccccc1)c1ccccc1 | inactive: -2.3%
C[C@H]1OP(=O)(Oc2ccccc2)C[C@@H]2O[C@@H]21 (some centres undefined) | inactive: -2.1%
C[C@@H]1C=CCP(=O)(Oc2ccccc2)O1 (some centres undefined) | inactive: 2%

Compound | inhibition
c1nnnn1CCn1cnnn1 | inactive: -6.8%
O=P(Nc1nccs1)(c1ccccc1)c1ccccc1 | inactive: -1.2%
CC(C)C(=O)NC(Sc1ccccc1)C(Cl)(Cl)Cl (centres undefined) | inactive: -0.6%
O=P(Nc1nc2ccccc2s1)(c1ccccc1)c1ccccc1 | inactive: 0%
C[C@H]1OP(=O)(Oc2ccccc2)[C@H](O)[C@H](O)[C@H]1N=[N+]=[N-] (some centres undefined) | inactive: -1.6%
COc1ccc(N)c([N+](=O)[O-])c1[N+](=O)[O-] | inactive: -4.1%
Nc1ccc(CCCCOc2ccccc2)cc1 | inactive: -1.9%
CN(C)C1(CNC(=O)c2ccc(Cl)c(S(N)(=O)=O)c2)CCCCC1 | inactive: -5%
O=P(Nc1ccccn1)(c1ccc(Br)cc1)c1ccc(Br)cc1 | inactive: -0.7%
C(Cc1nn[nH]n1)Cc1nn[nH]n1 | inactive: -4.6%
Nc1ccc([As](=O)(O)c2ccc([N+](=O)[O-])cc2)cc1 | inactive: 2.2%
O=C(OC1CN2CCC1CC2)c1cccc(Cl)c1 (centres undefined) | inactive: 3.6%
O=[N+]([O-])c1ncn(CCn2cnc([N+](=O)[O-])n2)n1 | inactive: 4.1%
CC(=O)NC(SC(=S)N(C)C)C(Cl)(Cl)Cl (centres undefined) | inactive: -1.7%
O=[N+]([O-])c1ccc(O)c(/C=N/Nc2ccc([N+](=O)[O-])cc2[N+](=O)[O-])c1 | inactive: -27.8%
O=[As](O)(c1ccccc1)c1ccc(O)cc1 | inactive: -6%
O=C(Nc1cc([As](=O)(O)O)ccc1O)c1ccccc1 | inactive: -0.8%
O=P1(N(CCCl)CCCl)OCCCS1 (centres undefined) | inactive: 1.7%
COC(=O)C1(C)COP(=O)(Nc2ccccc2)OC1 (centres undefined) | inactive: -3.3%
O=[N+]([O-])c1cccc(NC2=NCC(CBr)S2)c1 (centres undefined) | inactive: 0.8%
O=C(O)CNc1ccc([As](=O)(O)O)cc1 | inactive: 6.4%
CC(C)(C)C(=O)NC(Sc1ccncn1)C(Cl)(Cl)Cl (centres undefined) | inactive: -5.6%
O=[N+]([O-])c1ncn(CCn2ncnc2[N+](=O)[O-])n1 | inactive: 0.6%
CC(=O)N1C2C3N(C(C)=O)C1C1N(C(C)=O)C(C(N1C(C)=O)N3C(C)=O)N2C(C)=O | inactive: -1.4%
O=[N+]([O-])c1cccc2n[nH]nc12 | inactive: -1.9%
Cc1ccc(NP(=O)(Oc2ccccc2)Oc2ccccc2)nc1 | inactive: -3.4%

Compound | inhibition
O=[N+]([O-])c1cc([N+](=O)[O-])c(CCNc2ccccc2)c([N+](=O)[O-])c1 | inactive: 4.5%
CCc1nc2c(n1)c1c(non1O)c1c2no[n+]1[O-] | inactive: 4%
COc1ccc(C2=NCC(CBr)S2)cc1 (centres undefined) | inactive: 1.5%
CC(C)c1nc(Nc2ccccc2)n(P(=O)(N(C)C)N(C)C)n1 | inactive: -2.7%
CC(C)=N/N=C(\N)N[N+](=O)[O-] | inactive: -4.5%
CN(C)C(=O)OCCc1n(C)cc[n+]1C | inactive: -4.5%
CC1CCN(C(=O)Oc2c(Cl)cc(Cl)c3cccnc23)CC1 | inactive: 0.7%
c1cc(-c2nn[nH]n2)ccc1-c1nn[nH]n1 | inactive: -3.4%
Nc1ccc([As](=O)(O)c2ccc(N)cc2)cc1 | inactive: -6.5%
C[N+]1=C2C=CC=CC=C2SC12C([N+](=O)[O-])=CC([N+](=O)[O-])=C[C-]2[N+](=O)[O-] (centres undefined) | inactive: -2.7%
CCN(/C(=N/P(=O)(N1CCOCC1)N1CCOCC1)N1CCOCC1)c1ccc(OC)cc1 | inactive: 9%
COc1ccccc1OP(=O)(Nc1ccc(C)cn1)Oc1ccccc1OC | inactive: -6.2%
Cc1ccc(OP(=O)(Nc2nccs2)Oc2ccc(C)cc2)cc1 | inactive: 2.4%
CN1CCCC(OC(=O)C(c2ccccc2)c2ccccc2)C1 (centres undefined) | inactive: -10.4%
Clc1ccc(Cl)c(NC2=NCC(CBr)S2)c1 (centres undefined) | inactive: -8.7%
NC(=O)c1cc([N+](=O)[O-])cc([N+](=O)[O-])c1N | inactive: 0.3%
CN(C(=O)Cc1ccc(Cl)c(Cl)c1)[C@H]1CCCC[C@H]1N1CCCC1 | inactive: -4.8%
Cc1ccc(N/C(=N/P(=O)(N2CCOCC2)N2CCOCC2)N2CCOCC2)cc1 | inactive: -4.8%
O=[N+]([O-])C1C(O)C(O)C([N+](=O)[O-])C(O)C1O (centres undefined) | inactive: -8.6%
Nc1cc(N)c2nonc2c1[N+](=O)[O-] | inactive: 2.7%
CC(C)CC(=O)NC(Sc1ccc(Cl)cc1)C(Cl)(Cl)Cl (centres undefined) | inactive: 0.6%
Oc1ccccc1CNc1ccccn1 | inactive: -0.6%
O=C(NC(Sc1ccncn1)C(Cl)(Cl)Cl)c1ccccc1 (centres undefined) | inactive: -4.6%
Cc1cc(SC(NC(=O)c2ccc(F)cc2)C(Cl)(Cl)Cl)ncn1 (centres undefined) | inactive: -3%
CCOP(=O)(Nc1ccccc1)OCC | inactive: 4.4%
CN(C(=O)Cc1ccc(Cl)c(Cl)c1)[C@H]1CCCC[C@@H]1N1CCCC1 | inactive: -3.7%

Compound | inhibition
Cc1ccc(NP(=O)(Oc2ccccc2F)Oc2ccccc2F)nc1 | inactive: -4.8%
CC(=O)Nc1ccc([As](=O)(O)O)cc1 | inactive: -4.1%
O=C(O)c1ccccc1[As](=O)(O)O | inactive: -8.1%
CCCC1OP(N)(=O)OCC1CC (centres undefined) | inactive: 0.8%
O=P(Nc1nc2ccc(Cl)cc2s1)(c1ccccc1)c1ccccc1 | inactive: 2.5%
CN(C)P(=O)(N(C)C)n1c(Nc2ccccc2)nnc1-c1ccccc1 | inactive: 6.5%
CCN(N=Nc1nonc1N)c1nonc1N | inactive: 5.6%
Nc1cccc2ccc([As](=O)(O)O)cc12 | inactive: -4.6%
Cc1ccc2nc3c(c(C)c2c1)CC(C(Cl)Cl)S3 (centres undefined) | inactive: 8.2%
Cc1ccc(OP(=O)(Nc2ccc([N+](=O)[O-])cn2)Oc2ccc(C)cc2)cc1 | inactive: 4.4%
C[As](=O)(O)c1cccc(C(=O)O)c1 | inactive: -2.4%
O=[As](O)(c1ccc(O)cc1)c1ccccc1O | inactive: -1.8%
O=[N+]([O-])c1ccc(-c2cc([N+](=O)[O-])c(O)c([N+](=O)[O-])c2)cc1 | inactive: 1.2%
COc1cc(C(=O)NCC2(N3CCOCC3)CCCCC2)ccc1OCC(C)C | inactive: -3.8%
CC(C)NC(=O)NP(=O)(Oc1ccccc1)Oc1ccccc1 | inactive: -8.9%
O=C(OC1CN2CCC1CC2)c1cccc2[nH]cnc12 (centres undefined) | inactive: 0.7%
CCN(CC)C(=S)SC(NC=O)C(Cl)(Cl)Cl (centres undefined) | inactive: 0.4%
O=[N+]([O-])c1cc([N+](=O)[O-])c(-c2ccn[nH]2)s1 | inactive: 1.9%
COC(=O)C1(C)COP(=O)(N2CCCCCC2)OC1 (centres undefined) | inactive: -3.6%
CC(C)c1ccc(OP(=O)(Nc2ccccn2)Oc2ccccc2F)cc1 (centres undefined) | inactive: -5.1%
ClCCSc1nnc(-c2cccnc2)o1 | inactive: 0.2%
COc1ccc2nc(NP(=O)(c3ccccc3)c3ccccc3)sc2c1 | inactive: 0.8%
COc1cc(I)ccc1[As](=O)(O)O | inactive: -4%
O=P1(N(CCCl)CCCl)Nc2ccccc2N1 | inactive: -4.1%
O=P1(N(CCCl)CCCl)OCCCN1CCCl (centres undefined) | inactive: 1%
O=C(OC1CN2CCC1CC2)C12CC3CC(CC(C3)C1)C2 (centres undefined) | inactive: -10.8%
